Results from ChEMBL document CHEMBL1139612 (Bioorg Med Chem Lett, 2005).

Sequences of proteins named here, by UniProt entry; tags and fusion partners are left off.
UniProt P19327, whole entry: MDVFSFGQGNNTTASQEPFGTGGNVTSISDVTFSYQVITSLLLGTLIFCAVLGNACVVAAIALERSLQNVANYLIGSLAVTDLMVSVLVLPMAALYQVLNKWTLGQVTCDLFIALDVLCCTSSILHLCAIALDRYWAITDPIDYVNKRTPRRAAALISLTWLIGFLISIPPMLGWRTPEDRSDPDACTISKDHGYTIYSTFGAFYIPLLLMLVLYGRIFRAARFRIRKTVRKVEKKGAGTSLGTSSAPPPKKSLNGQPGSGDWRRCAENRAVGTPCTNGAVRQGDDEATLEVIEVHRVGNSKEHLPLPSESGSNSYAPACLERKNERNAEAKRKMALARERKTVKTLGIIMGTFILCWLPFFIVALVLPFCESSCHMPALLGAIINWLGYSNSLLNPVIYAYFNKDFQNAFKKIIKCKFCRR

Target: 5-hydroxytryptamine receptor 1A (Rattus norvegicus, UniProt P19327)
Experiment: Inhibitory concentration against 5-hydroxytryptamine 1A receptor in rat hippocampus membrane using [3H]-8-OH-DPAT as radioligand
Assay type: cell membranes

Cl.O=C1c2ccccc2OC=C(Cl)N1CCCCN1CCC(O)(c2ncccn2)CC1
IC50: 2650 nM
